The test system of this data set is CC(C)C[C@H](NC(=O)[C@H](CCC(=O)O)NC(=O)[C@H](CCCCN)NC(=O)[C@H](CCC(=O)O)NC(=O)[C@H](CC(N)=O)NC(=O)[C@H](CC(C)C)NC(=O)[C@@H](NC(=O)[C@@H]1CCCN1C(=O)[C@H](Cc1ccccc1)NC(=O)[C@H](CCC(N)=O)NC(=O)[C@H](C)N)C(C)C)C(=O)N[C@@H](CCCCN)C(=O)N[C@@H](CCC(=O)O)C(=O)N[C@H](C(=O)N[C@@H](CC(C)C)C(=O)NCC(=O)NCC(=O)Nc1ccc2c(C(F)(F)F)cc(=O)oc2c1)C(C)C. Nature of the data set: purified protein, by the assay type. Conditions: other: saturation curve, pH 7.0, 25 °C, Fig. S1.

Our source for the Km and kcat values is publication PMC5481443, “High-throughput Screening of Small Molecule Inhibitors of the Streptococcus Quorum-sensing Signal Pathway” (Scientific Reports, 2017).

Consider “S. pneumoniae PEP (Streptococcus pneumoniae TIGR4)”, for which the Michaelis constant (Km) was found to be 7.9 µM and the kcat amounted to 0.13 min⁻¹.
